Molecular target: T1, H1 receptor (Mus musculus, UniProt P70174)
T1 construct: The excised brain tissue was homogenized with Polytron; from tissue; host or cells: entire brain except cerebellum and medulla oblongata, homogenate
Experiment: Murine intracranial H1 receptor content (ex vivo), 3H-pyrilamine binding in brain homogenate after oral dosing

The chains behind the UniProt entries cited, without tags or fusion partners.
UniProt P70174, whole entry: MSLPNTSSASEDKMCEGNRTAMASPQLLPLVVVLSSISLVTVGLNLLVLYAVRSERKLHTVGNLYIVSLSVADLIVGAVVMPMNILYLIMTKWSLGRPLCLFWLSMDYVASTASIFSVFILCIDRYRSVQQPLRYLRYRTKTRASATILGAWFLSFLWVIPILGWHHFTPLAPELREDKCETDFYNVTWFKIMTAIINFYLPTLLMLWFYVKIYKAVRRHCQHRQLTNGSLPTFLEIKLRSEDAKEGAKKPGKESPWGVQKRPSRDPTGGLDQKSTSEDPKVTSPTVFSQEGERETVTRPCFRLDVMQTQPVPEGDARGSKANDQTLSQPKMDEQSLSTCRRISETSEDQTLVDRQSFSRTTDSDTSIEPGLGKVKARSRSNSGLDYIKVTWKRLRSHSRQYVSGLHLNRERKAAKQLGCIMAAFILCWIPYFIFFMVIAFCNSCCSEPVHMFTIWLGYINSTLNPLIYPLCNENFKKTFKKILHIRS

## CN1CCC(=C2c3ccccc3CC(=O)c3sccc32)CC1 [Ketotifen, reference compound]
ID50 of intracranial receptor binding test (Table 7) divided by ED50 of histamine-induced vascular hyperpermeability test (Table 6)
  ID50 (mg/kg)/ED50 (mg/kg): 0.9
mouse, oral administration, brain excised after 1 hour, 3H-pyrilamine 2 nmol/L binding to brain homogenate, read-out: ID50 (the source's name)
  ED50: 0.51 mg/kg

— patent publication US8222419B2, “Oxepin derivative” (Nippon Zoki Pharmaceutical Co., Ltd., priority 2006, dated 2012)
